# Measurements reported in patent publication US6605638B1, “Use of branched chain fatty acids and derivatives thereof for inhibition of P-glycoprotein” (D-Pharm Limited, priority 2000, dated 2003).
# Protein sequences, listed by entry. Tags and fused reporters are not part of them. Residues count along the entry.
# UniProt A0A3Q1MB23, 1-1267: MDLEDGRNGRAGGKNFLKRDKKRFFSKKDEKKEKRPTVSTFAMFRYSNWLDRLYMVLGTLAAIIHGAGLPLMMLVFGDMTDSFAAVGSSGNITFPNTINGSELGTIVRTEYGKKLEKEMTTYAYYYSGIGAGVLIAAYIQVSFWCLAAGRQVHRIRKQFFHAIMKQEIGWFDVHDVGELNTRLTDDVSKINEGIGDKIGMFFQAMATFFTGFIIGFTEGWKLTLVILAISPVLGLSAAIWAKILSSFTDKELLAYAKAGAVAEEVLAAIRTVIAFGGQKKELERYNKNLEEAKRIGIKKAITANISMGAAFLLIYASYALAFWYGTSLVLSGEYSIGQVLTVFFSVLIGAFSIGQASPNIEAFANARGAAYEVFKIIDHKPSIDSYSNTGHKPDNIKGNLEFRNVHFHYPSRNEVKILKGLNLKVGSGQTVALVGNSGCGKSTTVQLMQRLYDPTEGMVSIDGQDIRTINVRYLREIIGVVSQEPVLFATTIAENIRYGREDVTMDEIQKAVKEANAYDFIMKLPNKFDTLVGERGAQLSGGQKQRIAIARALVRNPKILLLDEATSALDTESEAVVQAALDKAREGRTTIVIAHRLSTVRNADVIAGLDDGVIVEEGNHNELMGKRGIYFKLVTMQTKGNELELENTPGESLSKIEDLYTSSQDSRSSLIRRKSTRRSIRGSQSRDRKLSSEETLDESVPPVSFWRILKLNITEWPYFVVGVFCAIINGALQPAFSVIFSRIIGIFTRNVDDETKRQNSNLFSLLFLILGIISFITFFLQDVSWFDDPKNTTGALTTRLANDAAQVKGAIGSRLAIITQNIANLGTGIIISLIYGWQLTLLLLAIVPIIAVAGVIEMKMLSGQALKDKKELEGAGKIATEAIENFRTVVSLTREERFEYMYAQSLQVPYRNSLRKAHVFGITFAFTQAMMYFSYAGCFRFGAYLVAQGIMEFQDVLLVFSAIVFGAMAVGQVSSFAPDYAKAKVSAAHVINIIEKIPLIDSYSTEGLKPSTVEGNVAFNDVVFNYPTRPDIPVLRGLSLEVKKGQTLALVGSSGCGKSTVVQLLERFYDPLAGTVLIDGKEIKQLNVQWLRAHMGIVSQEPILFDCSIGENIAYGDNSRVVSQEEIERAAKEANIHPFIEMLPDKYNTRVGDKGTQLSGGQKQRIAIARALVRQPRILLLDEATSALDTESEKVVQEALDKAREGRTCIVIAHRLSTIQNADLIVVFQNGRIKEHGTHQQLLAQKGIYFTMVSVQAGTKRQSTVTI
# Molecular target: P-glycoprotein (Bos taurus, UniProt A0A3Q1MB23)
# Test: Vincristine transport/clearance across endothelial cell monolayers, in vitro BBB co-culture model
# Type: cell-based, bovine
# Set-up: P-glycoprotein is expressed in cultured endothelial cells; endogenous in cells; host or cells: primary bovine brain capillary endothelial cells, co-cultured with newborn rat astrocytes in the lower compartment
# Details: 60 min
structure (smiles),measurement,setting,value
"CC[C@]1(O)C[C@H]2CN(CCc3c([nH]c4ccccc34)[C@@](C(=O)OC)(c3cc4c(cc3OC)N(C=O)[C@H]3[C@@](O)(C(=O)OC)[C@H](OC(C)=O)[C@]5(CC)C=CCN6CC[C@]43[C@@H]65)C2)C1 [vincristine, [γ-^3H]Vincristine sulphate, reference compound]",Percentage of vincristine transported across the endothelial cell monolayers,"Example 4, 50 nM vincristine without verapamil",6.76±0.44%
same,Percentage of vincristine transported across the endothelial cell monolayers,"Example 5, vincristine without verapamil",1.46±0.21%
